Earlier results on 1 substance are cited in patent EP0657176B1, “Composition containing a water-insoluble or slightly water-soluble compound with enhanced water-solubility” (priority 1993, dated 1995).

The conditions of the data set: cited from earlier work.

Regarding γ-cyclodextrin, the water-solubilities entry is “about 23%”.
